# PubChem BioAssay AID645 (SRMLSC, 2007)
# Only a part is listed here, and it is no random draw. Activity calls are given as the source filed them.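 The calls were made as follows: active = HER2 level under 5% of the carrier-only control; inconclusive = no clear call, values can overlap the other calls; inactive = the rest.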
# Target: Receptor tyrosine-protein kinase erbB-2 (Homo sapiens) (UniProt P04626)
# Assay: reducers of endogenous HER2 protein levels – SKBR-3 cells, AlphaScreen, 66K library, primary screen (AID 645);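 also: 100% = DMSO carrier and 0% = 500 nM PU-H71 HSP90 inhibitor; lower value means stronger loss of Her2 protein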
# Details: SKBR-3 HER2 protein level, 18-24 h, at 10 µM, hits give low values
row,SMILES,HER2 level % of control
1,CCc1nc2c(n1)c1c(non1O)c1c2no[n+]1[O-],active: -16.9%
2,Cc1c2non([O-])c-2c(C)[n+](=O)[n+]1[O-],inactive: 63.3%
3,O=P1(Nc2nc3ccc(Cl)cc3s2)COc2ccccc2O1 (stereo not given),inactive: 82.5%
4,COC(=O)c1cc2c(s1)N=C(c1ccccc1)N(C)P2(=O)N1CCOCC1 (stereo not given),inactive: 97.8%
5,O=C(OC1CN2CCC1CC2)c1cccc(Cl)c1 (stereo not given),inactive: 104%
6,c1nnnn1CCn1cnnn1,inactive: 96.5%
7,O=P(Nc1nccs1)(c1ccccc1)c1ccccc1,inactive: 91.6%
8,Clc1n[nH]nc1-c1nn[nH][15n]1,inactive: 119%
9,O=P1(Nc2ccccn2)COc2ccccc2OC1,inactive: 74%
10,Cc1nn(-c2ccccc2)c2c1P(=O)(N1CCOCC1)N(C)C(c1ccccc1)=N2 (stereo not given),inactive: 123%
11,Cc1ccc(OCC(=O)OC2CN3CCC2CC3)cc1 (stereo not given),inactive: 136%
12,O=P1(Nc2ccc(Br)cn2)COc2ccccc2OC1,inactive: 95.1%
13,O=P1(Nc2ncccn2)COc2ccccc2OC1,inactive: 85.2%
14,CCOP1(=S)c2c(C)nn(CCC#N)c2N=C(c2ccccc2F)N1C (stereo not given),inactive: 96.8%
15,O=P(Nc1nccs1)(c1ccccc1)c1nc2ccccc2s1 (stereo not given),inactive: 116%
16,CCOP1(=S)c2c(C)nn(CCC#N)c2N=C(c2ccc(F)cc2)N1C (stereo not given),inactive: 128%
17,Cc1cccc(OCC(=O)OC2CN3CCC2CC3)c1 (stereo not given),inactive: 110%
18,O=C(OC1CN2CCC1CC2)C12CC3CC(CC(C3)C1)C2 (stereo not given),inactive: 97.5%
19,O=C(COc1ccccc1)OC1CN2CCC1CC2 (stereo not given),inactive: 74.8%
20,COP1(=S)c2c(C)nn(CCC#N)c2N=C(c2ccc(F)cc2)N1C (stereo not given),inactive: 110%
